Experimental data reported in US7750036B2, “Carvedilol salts, corresponding compositions, methods of delivery and/or treatment” (SB Pharmco Puerto Rico Inc., priority 2004, dated 2010).

Assay: Solubility in water of carvedilol free base and salts (shaken vials, UV-Vis)

Structure (SMILES): COc1ccccc1OCCNCC(O)COc1cccc2[nH]c3ccccc3c12 (racemic) [Carvedilol]
- Aqueous Solubility (Table 11, 25° C., 1 hr): 0.0098 mg of carvedilol free base/mL of solution
- Aqueous Solubility (Table 13, 25° C., 24 hr): 0.024 mg of Carvedilol free base/mL of solution
